# Yeast mating assay 2: variants of the scFv Ab-95

Reference: Engelhart et al. 2022, doi:10.1038/s41597-022-01779-4. File: FLAb, binding data.

All variants were tested on one target, the spike HR2 peptide PDVDLGDISGINAS (SARS-CoV-2).

Ab-95 is the parent antibody, in scFv form: VH, then a (GGGGS)3 linker, then VL. The heavy chain is unchanged in all variants.
VH: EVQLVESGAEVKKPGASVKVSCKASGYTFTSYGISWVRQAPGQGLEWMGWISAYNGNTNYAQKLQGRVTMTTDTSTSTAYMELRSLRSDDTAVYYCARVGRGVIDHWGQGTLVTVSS
VL: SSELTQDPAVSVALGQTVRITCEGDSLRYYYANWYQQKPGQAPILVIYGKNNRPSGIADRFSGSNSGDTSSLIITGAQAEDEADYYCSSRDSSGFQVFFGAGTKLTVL

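The starting antibody came from a phage panning campaign against this peptide. In library AAYL52, one, two or three CDR residues were substituted; doubles and triples were drawn at random. AlphaSeq pools MATa yeast showing the antibodies with MATalpha yeast showing the peptide. Binding brings cells together so that they mate, and sequencing counts the barcode pairs among the diploids. Each replicate has its own calibration line, from reference interactions of the BCL2 family. Mating was done three times.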

Each variant is given by its three light chain CDRs, as the data file delimits them; those of the parent are EGDSLRYYYAN, GKNNRPS, SSRDSSGFQVF. This list gathers variants with a substitution at N33 (VL, numbered from residue 1). Each Kd is an estimate from the mating assay, the geometric mean of the replicates in which the pair was seen; lower is stronger. An entry "nd" has no value in the source: the pair was not observed among the diploids in any replicate. This suggests poor binding but is not conclusive.

* EGDSLRYMYAH / GKRNRPS / SSRDSSGFQVF -> 30 µM (2 of 3 replicates)
* EGDSLRYYYAA / GKDNRPS / SSRDHSGFQVF -> 5.9 µM (2 of 3 replicates)
* EGDSLRYYYAK / GKNNRPS / DSRDSSVFQVF -> nd (0 of 3 replicates)
* EGDSLRYYYAM / GKNNRPS / SSRDSNGFQVF -> 190 nM (3 of 3 replicates)
* EGDSLRYYYAW / GKNNVPS / SSRDSSGFQVF -> 11 µM (3 of 3 replicates)
* EGDSLRYYYAY / GKNNRHS / SSRDSSHFQVF -> nd (0 of 3 replicates)
* EGDSRRYYYAP / WKNNRPS / SSRDSSGFQVF -> nd (0 of 3 replicates)
* EGDSLRYYYAH / GKNNRPS / SSRMSSGFRVF -> nd (0 of 3 replicates)
* EGDSLRYRYAF / GKNNRPS / SSRDSSGAQVF -> 5.8 µM (3 of 3 replicates)
* EEDSLRYYNAW / GKNNRPS / SSRDSSGFQVF -> 100 µM (2 of 3 replicates)
* VGDSLRYYYAI / GKNNRPS / SSYDSSGFQVF -> nd (0 of 3 replicates)
* EGDSLRYYYAT / GKNNRCS / SSEDSSGFQVF -> 190 µM (1 of 3 replicates)
* EGDSLRYYYAT / GKNNRPS / SSRDSSGFQVF -> 700 nM (3 of 3 replicates)
* EGDSLRYQYAI / GKNNRPA / SSRDSSGFQVF -> 32 µM (1 of 3 replicates)
* EGDSLRYYYAR / GKNNRPS / TSRDSSGFHVF -> 3.4 µM (1 of 3 replicates)
* EGDSLHYYYAL / GKNNRMS / SSRDSSGFQVF -> 1.6 µM (3 of 3 replicates)
* EGDSLRYYYAM / GKNNRPS / SIRDSSGFQPF -> 29 µM (1 of 3 replicates)
* EGDSLRYYYAW / GKYNRPS / SSRDSSGAQVF -> nd (0 of 3 replicates)
* EGDSLRYYYAT / GKNNRFS / SSRDSSGFQVF -> 22 µM (2 of 3 replicates)
* EGYSLRYYYAY / GKNNRDS / SSRDSSGFQVF -> 4.7 µM (3 of 3 replicates)
* EGDSLRYYYAQ / GKNNRPS / WSSDSSGFQVF -> 28 µM (2 of 3 replicates)
* EGDSLRYYYAR / GKNNRPS / SIRDSSGFCVF -> nd (0 of 3 replicates)
* PGDSTRYYYAM / GKNNRPS / SSRDSSGFQVF -> nd (0 of 3 replicates)
* EGTSLRYYYAR / GKNNRPS / SSRDSSGFQVF -> 13 µM (2 of 3 replicates)
* EGDSLRYIYAA / GKNNRPS / YSRDSSGFQVF -> 70 µM (3 of 3 replicates)
* DGDSLRYYYAV / GKNNRPS / SSRDSSGFQVF -> 4.8 µM (2 of 3 replicates)
* EGDSLRYYYAY / GKNNRPS / SSRPSSSFQVF -> 14 µM (1 of 3 replicates)
* EGDSLRMYYAW / GKNNPPS / SSRDSSGFQVF -> 4.3 µM (2 of 3 replicates)
* EGDSLRYYYAH / GKKNRPS / SIRDSSGFQVF -> nd (0 of 3 replicates)
* EGDGLRYYYAC / GKNNRPS / SSRDSSGFQVF -> 6.6 µM (1 of 3 replicates)
* EGDSLRYYHAT / GKNNRPS / SSRDSSGFQKF -> 360 µM (1 of 3 replicates)
* EGDSLRYYYAH / GKNNRPS / ESRDSSGPQVF -> 9.7 µM (1 of 3 replicates)

Again, the first 5 entries without any signal:

* EGDSLRYYYAK / GKNNRPS / DSRDSSVFQVF = nd (0 of 3 replicates)
* EGDSLRYYYAY / GKNNRHS / SSRDSSHFQVF = nd (0 of 3 replicates)
* EGDSRRYYYAP / WKNNRPS / SSRDSSGFQVF = nd (0 of 3 replicates)
* EGDSLRYYYAH / GKNNRPS / SSRMSSGFRVF = nd (0 of 3 replicates)
* VGDSLRYYYAI / GKNNRPS / SSYDSSGFQVF = nd (0 of 3 replicates)

In this assay the parent's reference entry averaged 200 nM; its copy inside this library read 180 nM. As a blank, each scFv also met three strains without target: over library AAYL52, 28% of these pairings were detected, typically at 8.2 µM and seldom below 800 nM.